## Apparent affinities of Ab-14 variants for a coronavirus HR2 peptide

Antigen: PDVDLGDISGINAS, a 14-residue peptide of the SARS-CoV-2 spike HR2 region.

Parent scFv Ab-14: VH joined to VL by a 15-residue (Gly4Ser)3 linker. Changes lie in the light chain CDRs alone.
VH: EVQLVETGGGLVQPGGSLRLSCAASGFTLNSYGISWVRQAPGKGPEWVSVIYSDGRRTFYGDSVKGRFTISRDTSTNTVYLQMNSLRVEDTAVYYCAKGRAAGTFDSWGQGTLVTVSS
VL: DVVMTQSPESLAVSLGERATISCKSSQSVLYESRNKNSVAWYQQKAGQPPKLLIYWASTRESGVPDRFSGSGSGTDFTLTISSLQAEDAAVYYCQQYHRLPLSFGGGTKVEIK

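The parent was found by panning a naive human phage display library on the peptide. Library AAYL50 holds single substitutions and randomly drawn double and triple substitutions in the CDRs. The scFvs were displayed on barcoded MATa yeast, the peptide on MATalpha yeast. Mating (16 h, 30 °C) was followed by selection of diploids and sequencing of their barcodes. Read counts were normalised to the haploid input and turned into Kd by a linear fit to BCL2-family pairs of known affinity, for each replicate. The assay was run in three technical replicates.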

Changes read parent residue, position, new residue, counted from the first residue of the VL shown. The read-out is the apparent dissociation constant on a log10 scale (nM): the lower, the stronger. Replicates are averaged; those with no signal do not enter the mean. "nd" marks a missing value. The strain was present, yet no cells mated with the target were sequenced in that replicate, which points to weak or no binding.

| changes | replicates, log10 nM | log10 Kd (nM), mean | control signals |
|---|---|---|---|
| S26G E61I R99I | 2.72 / 2.77 / 3.97 | 3.16 | 0/9 |
| S25P V39A Q96L | nd / nd / nd | nd | 0/9 |
| V39E H98A R99Q | 4.50 / 3.92 / nd | 4.21 | 3/9 (3.89) |
| R34C L100C | 3.83 / nd / 4.19 | 4.01 | 2/9 (3.60) |
| S28A N37D S58N | 0.99 / 1.20 / 1.25 | 1.15 | 2/9 (4.76) |
| S33K S62I | nd / nd / nd | nd | 0/9 |
| Y31M R34Y L102F | 0.35 / 0.34 / 0.28 | 0.32 | 0/9 |
| S28Q V39L L100E | 1.46 / 2.15 / 1.58 | 1.73 | 0/9 |
| K24F N35Q T59F | nd / nd / nd | nd | 1/9 (3.61) |
| S25Y V39G Q96N | nd / nd / nd | nd | 0/9 |
| K36W | 1.25 / 1.50 / 2.24 | 1.66 | 3/9 (2.52) |
| V29M S33K L102W | nd / nd / nd | nd | 0/9 |
| S28I A40P T59D | 4.88 / nd / nd | 4.88 | 0/9 |
| L30V E61C H98P | 5.26 / 5.25 / 2.94 | 4.48 | 2/9 (3.35) |
| K24T S33W R60A | 3.59 / 3.82 / nd | 3.71 | 2/9 (3.97) |
| R34K L102P | nd / nd / nd | nd | 1/9 (2.48) |
| S58A P101G | nd / nd / nd | nd | 0/9 |
| S25H E32R W56L | 2.88 / 2.32 / 2.64 | 2.62 | 1/9 (4.22) |
| Y31I N35H L100T | nd / nd / 4.24 | 4.24 | 0/9 |
| K24H Q95E | nd / 3.39 / 3.16 | 3.27 | 2/9 (4.31) |
| V39P Q95R Y97H | 3.74 / 5.33 / 5.75 | 4.94 | 3/9 (4.59) |
| E32S P101G L102G | 2.53 / 2.30 / 2.91 | 2.58 | 1/9 (5.02) |
| Q27N V29G V39L | 3.88 / 2.15 / 2.71 | 2.91 | 0/9 |
| Q27S W56N H98E | nd / nd / nd | nd | 0/9 |
| S28T N35K K36E | 1.16 / 1.39 / 1.48 | 1.34 | 1/9 (3.36) |
| K24A Q27H L30C | 2.46 / 3.55 / 2.08 | 2.70 | 1/9 (3.47) |
| V29P S33D Y97C | nd / nd / nd | nd | 4/9 (4.80) |
| S33G K36R Q95N | nd / 3.08 / nd | 3.08 | 0/9 |
| Q27M E61H | 1.00 / 1.19 / 1.19 | 1.13 | 2/9 (4.02) |
| R34D Q95V H98N | nd / nd / nd | nd | 0/9 |
| S28F S38K A40P | nd / nd / nd | nd | 0/9 |
| S26W P101F | nd / nd / nd | nd | 0/9 |
| L30V V39P R60Q | nd / nd / nd | nd | 1/9 (4.15) |
| L30D N37S H98A | nd / nd / nd | nd | 0/9 |
| S26G N35D N37S | 1.56 / 1.52 / 1.68 | 1.59 | 2/9 (3.67) |
| Q27C E32I Q96M | nd / 4.24 / 6.48 | 5.36 | 7/9 (4.23) |
| Q27K W56P | nd / nd / nd | nd | 2/9 (4.61) |
| N37E E61P S62P | nd / nd / 4.03 | 4.03 | 2/9 (4.23) |
| Q96C Y97W | nd / 3.78 / nd | 3.78 | 1/9 (3.51) |
| R34I | 0.47 / 0.80 / 0.67 | 0.65 | 0/9 |

Top 6 of the variants detected in all replicates, tightest first:

changes	replicates, log10 nM	log10 Kd (nM), mean	control signals
Y31M R34Y L102F	0.35 / 0.34 / 0.28	0.32	0/9
R34I	0.47 / 0.80 / 0.67	0.65	0/9
Q27M E61H	1.00 / 1.19 / 1.19	1.13	2/9 (4.02)
S28A N37D S58N	0.99 / 1.20 / 1.25	1.15	2/9 (4.76)
S28T N35K K36E	1.16 / 1.39 / 1.48	1.34	1/9 (3.36)
S26G N35D N37S	1.56 / 1.52 / 1.68	1.59	2/9 (3.67)

Parent in this assay: reference entry 0.65, copy in this library 1.68. Nonspecific signal, from three strains lacking the peptide, appeared in 18% of pairings of library AAYL50, centred on 4.19 (5% of these signals below 2.99); values are not corrected for it. The control count says in how many pairings with the empty strains this scFv gave a signal, with their mean in brackets.

The measurements come from Engelhart et al. 2022 (doi:10.1038/s41597-022-01779-4) through the FLAb antibody collection.